Reference: patent US20250368649A1, “TETRAHYDROPYRIDOPYRIMIDINE PAN-KRAS INHIBITORS” (Mirati Therapeutics, Inc., priority 2022, published 2025)

Chains of the proteins cited; added tags and fusions are not shown. Lines headed by an entry give the natural chain unless they say otherwise; changes in a name come on top.
UniProt P01116: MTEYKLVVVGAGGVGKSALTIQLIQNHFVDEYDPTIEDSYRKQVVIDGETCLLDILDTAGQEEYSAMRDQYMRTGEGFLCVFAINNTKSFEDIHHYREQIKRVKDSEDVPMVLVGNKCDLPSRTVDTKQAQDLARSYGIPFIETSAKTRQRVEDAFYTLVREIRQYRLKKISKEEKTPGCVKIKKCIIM

Assays:
Test in all cases: biochemical
KRas G12D = KRas G12D (Homo sapiens, UniProt P01116, G12D); conditions: Binding to KRas (IC50 nM) G12D, TR-FRET displacement
KRas G12R = KRas G12R (Homo sapiens, UniProt P01116, G12R); conditions: Binding to KRas (IC50 nM) G12R, TR-FRET displacement
KRas G12V = KRas G12V (Homo sapiens, UniProt P01116, G12V); conditions: Binding to KRas (IC50 nM) G12V, TR-FRET displacement

Row | SMILES | IC50 (KRas G12D) | IC50 (KRas G12R) | IC50 (KRas G12V)
1 | CCc1c(F)ccc2cc(O)cc(N3CCc4c(nc(OC[C@@]56CCCN5C[C@H](F)C6)nc4N4CCCn5nc(N(C)C(=O)N(C)C)cc5C4)C3)c12 [Example 272, 1-(5-(7-(8-ethyl-7-fluoro-3-hydroxynaphthalen-1-yl)-2-(((2R,7aS)-2-fluorohexahydro-1H-pyrrolizin-7a-yl)methoxy)-5,6,7,8-tetrahydropyrido[3,4-d]pyrimidin-4-yl)-5,6,7,8-tetrahydro-4H-pyrazolo[1,5-a][1,4]diazepin-2-yl)-1,3,3-trimethylurea] | 7 nM | 15 nM | 12 nM
2 | CCc1c(F)ccc2cc(O)cc(N3CCc4c(nc(OC[C@@]56CCCN5C[C@H](F)C6)nc4N4CCCn5nc(C(=O)N6CC7CNCC7C6)cc5C4)C3)c12 (stereo partly drawn) [Example 273, (5-(7-(8-ethyl-7-fluoro-3-hydroxynaphthalen-1-yl)-2-(((2R,7aS)-2-fluorohexahydro-1H-pyrrolizin-7a-yl)methoxy)-5,6,7,8-tetrahydropyrido[3,4-d]pyrimidin-4-yl)-5,6,7,8-tetrahydro-4H-pyrazolo[1,5-a][1,4]diazepin-2-yl)(hexahydropyrrolo[3,4-c]pyrrol-2(1H)-yl)methanone] | < 2 nM | < 2 nM | < 2 nM
3 | CCc1c(F)ccc2cc(O)cc(N3CCc4c(nc(OC[C@@]56CCCN5C[C@H](F)C6)nc4N4CCCn5nc(C(=O)N6CCC7(CCCCN7)C6)cc5C4)C3)c12 (stereo partly drawn) [Example 275, (5-(7-(8-ethyl-7-fluoro-3-hydroxynaphthalen-1-yl)-2(((2R,7as)-2-flurohexahydro-1H-pyrrolizin-7a-yl)methoxy)-5,6,7,8-tetrahydropyrido[3,4-d]pyrimidin-4yl)-5,6,7,8-tetrahydro-4H-pyrazolo[1,5-a][1,4]diazepin-2-yl)(2,6-diazaspiro[4.5]decan-2yl)methanone] | < 2 nM | < 2 nM | < 2 nM
4 | CCc1c(F)ccc2cc(O)cc(N3CCc4c(nc(OC[C@@]56CCCN5C[C@H](F)C6)nc4N4CCCn5nc(C(=O)N6CCC7(CCCN7)C6)cc5C4)C3)c12 (stereo partly drawn) [Example 276, (5-(7-(8-ethyl-7-fluoro-3-hydroxynaphthalen-1-yl)-2-(((2R,7aS)-2-fluorohexahydro-1H-pyrrolizin-7a-yl)methoxy)-5,6,7,8-tetrahydropyrido[3,4-d]pyrimidin-4-yl)-5,6,7,8-tetrahydro-4H-pyrazolo[1,5-a][1,4]diazepin-2-yl)(1,7-diazaspiro[4.4]nonan-7-yl)methanone] | < 2 nM | < 2 nM | < 2 nM
5 | CCc1c(F)ccc2cc(O)cc(N3CCc4c(nc(OC[C@@]56CCCN5C[C@H](F)C6)nc4N4CCCn5nc(CC(=O)NC)cc5C4)C3)c12 [Example 298, 2-(5-(7-(8-ethyl-7-fluoro-3-hydroxynaphthalen-1-yl)-2-(((2R,7aS)-2-fluorohexahydro-1H-pyrrolizin-7a-yl)methoxy)-5,6,7,8-tetrahydropyrido[3,4-d]pyrimidin-4-yl)-5,6,7,8-tetrahydro-4H-pyrazolo[1,5-a][1,4]diazepin-2-yl)-N-methylacetamide] | 3 nM | 5 nM | 4 nM
6 | CCc1c(F)ccc2cc(O)cc(N3CCc4c(nc(OC[C@@]56CCCN5C[C@H](F)C6)nc4N4CCCn5nc(CNS(C)(=O)=O)cc5C4)C3)c12 [Example 305, N-((5-(7-(8-ethyl-7-fluoro-3-hydroxynaphthalen-1-yl)-2-(((2R,7aS)-2-fluorohexahydro-1H-pyrrolizin-7a-yl)methoxy)-5,6,7,8-tetrahydropyrido[3,4-d]pyrimidin-4-yl)-5,6,7,8-tetrahydro-4H-pyrazolo[1,5-a][1,4]diazepin-2-yl)methyl)methanesulfonamide] | 3 nM | 5 nM | 5 nM
7 | CCc1c(F)ccc2cc(O)cc(N3CCc4c(nc(OC[C@@]56CCCN5C[C@H](F)C6)nc4N4CCCn5nc(C(=O)N6CC7CCC6C7)cc5C4)C3)c12 (stereo partly drawn) [Example 307, 2-azabicyclo[2.2.1]heptan-2-yl(5-(7-(8-ethyl-7-fluoro-3-hydroxynaphthalen-1-yl)-2-(((2R,7aS)-2-fluorohexahydro-1H-pyrrolizin-7a-yl)methoxy)-5,6,7,8-tetrahydropyrido[3,4-d]pyrimidin-4-yl)-5,6,7,8-tetrahydro-4H-pyrazolo[1,5-a][1,4]diazepin-2-yl)methanone] | < 2 nM | < 2 nM | < 2 nM
8 | CCc1c(F)ccc2cc(O)cc(N3CCc4c(nc(OC[C@@]56CCCN5C[C@H](F)C6)nc4N4CCCn5nc(C(N)=O)cc5C4)C3)c12 [Example 308, 5-(7-(8-ethyl-7-fluoro-3-hydroxynaphthalen-1-yl)-2-(((2R,7aS)-2-fluorohexahydro-1H-pyrrolizin-7a-yl)methoxy)-5,6,7,8-tetrahydropyrido[3,4-d]pyrimidin-4-yl)-5,6,7,8-tetrahydro-4H-pyrazolo[1,5-a][1,4]diazepine-2-carboxamide] | < 2 nM | < 2 nM | < 2 nM
9 | CCc1c(F)ccc2cc(O)cc(N3CCc4c(nc(OC[C@@]56CCCN5C[C@H](F)C6)nc4N4CCCn5nc(CN(C)C(=O)NC)cc5C4)C3)c12 [Example 309, 1-((5-(7-(8-ethyl-7-fluoro-3-hydroxynaphthalen-1-yl)-2-(((2R,7aS)-2-fluorohexahydro-1H-pyrrolizin-7a-yl)methoxy)-5,6,7,8-tetrahydropyrido[3,4-d]pyrimidin-4-yl)-5,6,7,8-tetrahydro-4H-pyrazolo[1,5-a][1,4]diazepin-2-yl)methyl)-1,3-dimethylurea] | 4 nM | 7 nM | 8 nM
10 | CCc1c(F)ccc2cc(O)cc(N3CCc4c(nc(OC[C@@]56CCCN5C[C@H](F)C6)nc4N4CCCn5nc(C(=O)N6CC7CC6CCO7)cc5C4)C3)c12 (stereo partly drawn) [Example 322, 2-oxa-6-azabicyclo[3.2.1]octan-6-yl(5-(7-(8-ethyl-7-fluoro-3-hydroxynaphthalen-1-yl)-2-(((2R,7aS)-2-fluorohexahydro-1H-pyrrolizin-7a-yl)methoxy)-5,6,7,8-tetrahydropyrido[3,4-d]pyrimidin-4-yl)-5,6,7,8-tetrahydro-4H-pyrazolo[1,5-a][1,4]diazepin-2-yl)methanone] | < 2 nM | < 2 nM | < 2 nM
11 | CCc1c(F)ccc2cc(O)cc(N3CCc4c(nc(OC[C@@]56CCCN5C[C@H](F)C6)nc4N4CCCn5nc(C(=O)N6CC7CC6CO7)cc5C4)C3)c12 (stereo partly drawn) [Example 323, (2-oxa-5-azabicyclo[2.2.1]heptan-5-yl)(5-(7-(8-ethyl-7-fluoro-3-hydroxynaphthalen-1-yl)-2-(((2R,7aS)-2-fluorotetrahydro-1H-pyrrolizin-7a(5H)-yl)methoxy)-5,6,7,8-tetrahydropyrido[3,4-d]pyrimidin-4-yl)-5,6,7,8-tetrahydro-4H-pyrazolo[1,5-a][1,4]diazepin-2-yl)methanone] | < 2 nM | < 2 nM | < 2 nM
12 | CCc1c(F)ccc2cc(O)cc(N3CCc4c(nc(OC[C@@]56CCCN5C[C@H](F)C6)nc4N4CCCn5nc(C(=O)N6C7COCC6C7)cc5C4)C3)c12 [Example 325, 3-oxa-6-azabicyclo[3.1.1]heptan-6-yl(5-(7-(8-ethyl-7-fluoro-3-hydroxynaphthalen-1-yl)-2-(((2R,7aS)-2-fluorohexahydro-1H-pyrrolizin-7a-yl)methoxy)-5,6,7,8-tetrahydropyrido[3,4-d]pyrimidin-4-yl)-5,6,7,8-tetrahydro-4H-pyrazolo[1,5-a][1,4]diazepin-2-yl)methanone] | < 2 nM | < 2 nM | < 2 nM
13 | CCc1c(F)ccc2cc(O)cc(N3CCc4c(nc(OC[C@@]56CCCN5C[C@H](F)C6)nc4N4CCCn5nc(S(=O)(=O)N(C)C)cc5C4)C3)c12 [Example 326, 5-(7-(8-ethyl-7-fluoro-3-hydroxynaphthalen-1-yl)-2-(((2R,7aS)-2-fluorohexahydro-11H-pyrrolizin-7a-yl)methoxy)-5,6,7,8-tetrahydropyrido[3,4-d]pyrimidin-4-yl)-N,N-dimethyl-5,6,7,8-tetrahydro-4H-pyrazolo[1,5-a][1,4]diazepine-2-sulfonamide] | < 2 nM | 4 nM | 5 nM
14 | CCc1c(F)ccc2cc(O)cc(N3CCc4c(nc(OC[C@@]56CCCN5C[C@H](F)C6)nc4N4CCCn5nc(C(=O)N6CC7CC(C6)O7)cc5C4)C3)c12 [Example 327, 6-oxa-3-azabicyclo[3.1.1]heptan-3-yl(5-(7-(8-ethyl-7-fluoro-3-hydroxynaphthalen-1-yl)-2-(((2R,7aS)-2-fluorohexahydro-1H-pyrrolizin-7a-yl)methoxy)-5,6,7,8-tetrahydropyrido[3,4-d]pyrimidin-4-yl)-5,6,7,8-tetrahydro-4H-pyrazolo[1,5-a][1,4]diazepin-2-yl)methanone] | < 2 nM | < 2 nM | < 2 nM
15 | CCc1c(F)ccc2cc(O)cc(N3CCc4c(nc(OC[C@@]56CCCN5C[C@H](F)C6)nc4N4CCCn5nc(C(=O)N6CC7CCCC6C7)cc5C4)C3)c12 (stereo partly drawn) [Example 328, 6-azabicyclo[3.2.1]octan-6-yl(5-(7-(8-ethyl-7-fluoro-3-hydroxynaphthalen-1-yl)-2-(((2R,7aS)-2-fluorohexahydro-1H-pyrrolizin-7a-yl)methoxy)-5,6,7,8-tetrahydropyrido[3,4-d]pyrimidin-4-yl)-5,6,7,8-tetrahydro-4H-pyrazolo[1,5-a][1,4]diazepin-2-yl)methanone] | 3 nM | < 2 nM | < 2 nM
16 | CCc1c(F)ccc2cc(O)cc(N3CCc4c(nc(OC[C@@]56CCCN5C[C@H](F)C6)nc4N4CCCn5nc(C(=O)N6CC7CC(C7)C6)cc5C4)C3)c12 [Example 330, 3-azabicyclo[3.1]heptan-3-yl(5-(7-(8-ethyl-7-fluoro-3-hydroxynaphthalen-1-yl)-2-(((2R,7aS)-2-fluorohexahydro-1H-pyrrolizin-7a-yl)methoxy)-5,6,7,8-tetrahydropyrido[3,4-d]pyrimidin-4-yl)-5,6,7,8-tetrahydro-4H-pyrazolo[1,5-a][1,4]diazepin-2-yl)methanone] | < 2 nM | < 2 nM | < 2 nM
